# Measurements taken from PubChem BioAssay AID588458 (Sanford-Burnham Center for Chemical Genomics, 2011).
# Protein sequences, listed by entry. Tags and fused reporters are not part of them. Lines headed by an entry give the natural chain unless they say otherwise; changes in a name come on top.
# UniProt P26358: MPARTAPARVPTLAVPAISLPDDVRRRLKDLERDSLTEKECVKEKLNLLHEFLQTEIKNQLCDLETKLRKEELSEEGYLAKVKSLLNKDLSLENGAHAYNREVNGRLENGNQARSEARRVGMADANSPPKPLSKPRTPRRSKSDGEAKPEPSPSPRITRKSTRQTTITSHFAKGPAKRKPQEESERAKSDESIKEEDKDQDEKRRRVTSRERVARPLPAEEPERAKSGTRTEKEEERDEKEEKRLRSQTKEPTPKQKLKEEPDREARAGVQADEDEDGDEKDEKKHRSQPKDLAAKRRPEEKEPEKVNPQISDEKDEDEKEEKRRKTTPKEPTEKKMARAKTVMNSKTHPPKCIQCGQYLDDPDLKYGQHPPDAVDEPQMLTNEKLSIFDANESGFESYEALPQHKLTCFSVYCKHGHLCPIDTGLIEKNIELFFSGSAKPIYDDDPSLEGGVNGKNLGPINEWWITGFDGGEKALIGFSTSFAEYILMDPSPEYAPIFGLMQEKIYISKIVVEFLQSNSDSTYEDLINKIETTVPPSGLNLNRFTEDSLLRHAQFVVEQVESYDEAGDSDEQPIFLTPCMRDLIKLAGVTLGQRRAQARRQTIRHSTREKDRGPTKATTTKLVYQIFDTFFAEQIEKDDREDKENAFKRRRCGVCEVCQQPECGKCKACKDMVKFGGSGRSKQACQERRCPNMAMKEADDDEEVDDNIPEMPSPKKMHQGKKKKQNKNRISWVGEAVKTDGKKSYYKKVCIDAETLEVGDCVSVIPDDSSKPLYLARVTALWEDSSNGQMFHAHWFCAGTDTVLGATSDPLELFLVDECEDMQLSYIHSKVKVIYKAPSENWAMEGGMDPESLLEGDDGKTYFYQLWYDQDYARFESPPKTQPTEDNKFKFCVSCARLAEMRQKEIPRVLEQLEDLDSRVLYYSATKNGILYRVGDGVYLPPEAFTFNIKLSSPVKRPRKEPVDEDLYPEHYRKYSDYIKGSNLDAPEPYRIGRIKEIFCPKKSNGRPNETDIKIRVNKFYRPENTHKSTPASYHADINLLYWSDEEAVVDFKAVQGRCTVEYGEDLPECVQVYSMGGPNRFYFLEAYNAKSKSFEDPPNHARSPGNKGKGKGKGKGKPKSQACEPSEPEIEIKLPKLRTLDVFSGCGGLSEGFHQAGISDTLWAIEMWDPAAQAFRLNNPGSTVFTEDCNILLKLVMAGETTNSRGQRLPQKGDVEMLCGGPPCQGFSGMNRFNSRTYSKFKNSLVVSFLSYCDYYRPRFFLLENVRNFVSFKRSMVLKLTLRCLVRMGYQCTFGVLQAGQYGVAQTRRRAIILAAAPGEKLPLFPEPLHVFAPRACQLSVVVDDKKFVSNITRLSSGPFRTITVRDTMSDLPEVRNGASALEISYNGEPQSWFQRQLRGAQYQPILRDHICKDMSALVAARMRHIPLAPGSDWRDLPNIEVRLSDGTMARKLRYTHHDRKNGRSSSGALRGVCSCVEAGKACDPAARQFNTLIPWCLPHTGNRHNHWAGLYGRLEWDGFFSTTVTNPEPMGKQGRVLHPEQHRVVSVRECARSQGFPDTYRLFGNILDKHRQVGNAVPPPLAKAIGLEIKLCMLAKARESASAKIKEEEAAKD
# This is a selection; strong and weak results do not stand in their true shares. Active and inactive are the calls of the source. No stated cut-off is given here; in the data, active means inhibition above about 50%; inactive means the rest.
# Molecular target: DNA (cytosine-5)-methyltransferase 1 (Homo sapiens) (UniProt P26358)
# Assay: inhibition of DNA methyltransferase DNMT1 – biochemical, molecular beacon, fluorescence, HinP1I cleavage, uHTS, primary screen (AID 588458)
# Details: at 10 µM, stronger effect = higher value
row,SMILES,inhibition (reported as % activation of signal)
1,COc1ccccc1CNC(=O)COC(=O)C(O)(c1ccccc1)c1ccccc1,inactive: -0.66%
2,Clc1n[nH]nc1-c1nn[nH][15n]1,inactive: 5.27%
3,O=P1(N(CCCl)CCCl)NCCC(C(F)(F)F)O1 (centres undefined),inactive: -0.97%
4,CC(C)(C)C(=O)NC(Sc1ncccn1)C(Cl)(Cl)Cl (centres undefined),inactive: -0.11%
5,CCOP(=O)(Nc1ccc(C)cn1)OCC,inactive: 0.65%
6,CN(CCCl)Cc1cc(Cl)c(NC2=NCCN2)c(Cl)c1,inactive: -7.65%
7,CCC1=CC2Cc3nc4ccc(Cl)cc4c(N)c3C(C1)C2 (centres undefined),inactive: 7.43%
8,O=P1(Nc2ccccn2)COc2ccccc2OC1,inactive: 13.2%
9,CCOP(=O)(NC(=NC(C)c1ccccc1)NC(C)c1ccccc1)OCC (centres undefined),inactive: -0.92%
10,COc1cc(C2NCCC3(OCCO3)C2(C)C)cc(OC)c1OC (centres undefined),inactive: 8.15%
11,CCOP(=O)(Nc1cccc2ccccc12)OCC,inactive: -0.17%
12,CCCOP(=S)(Nc1nc(N)cc(=O)[nH]1)OCCC,inactive: -2.88%
13,Cc1ccc(NCCc2c([N+](=O)[O-])cc([N+](=O)[O-])cc2[N+](=O)[O-])cc1,inactive: -12.8%
14,Nc1cccc2c([As](=O)(O)O)cccc12,active: 75.6%
15,Cc1cccc(OCC(=O)OC2CN3CCC2CC3)c1 (centres undefined),inactive: 1.41%
16,O=[As](O)(c1cccc(O)c1)c1cccc(O)c1,inactive: 2.68%
17,O=[As](O)(O)c1cccnc1,inactive: -0.56%
18,COc1cc(C(=O)NCC2(N3CCOCC3)CCCCC2)cc(Cl)c1OC(C)C,inactive: 3.91%
19,CS(=O)(=O)c1ccc(Cl)c(NC(=O)COC(=O)C(O)(c2ccccc2)c2ccccc2)c1,inactive: -0.93%
20,O=C(OC1CN2CCC1CC2)c1ccc(Cl)cc1 (centres undefined),inactive: 0.33%
21,O=[N+]([O-])c1ccc2c(c1)nnn2O,inactive: 3.25%
22,CN(C)C(=O)c1cc([N+](=O)[O-])cc2c1-c1c(cc([N+](=O)[O-])cc1[N+](=O)[O-])C2=O,inactive: 3.48%
23,CN(C(=O)Cc1ccc(Cl)c(Cl)c1)[C@H]1CC[C@@]2(CCCO2)C[C@@H]1N1CCCC1,inactive: -2.21%
24,N#CCCN(C(=O)COC(=O)C(O)(c1ccccc1)c1ccccc1)c1ccc(F)cc1,inactive: 1.93%
25,CCOP1(=S)c2c(C)nn(CCC#N)c2N=C(c2ccc(F)cc2)N1C (centres undefined),inactive: 1.01%

row,SMILES,inhibition (reported as % activation of signal)
1,CN(C(=O)Cc1ccccc1)[C@@H]1CC[C@]2(CCCO2)C[C@H]1N1CCCC1,inactive: 1.55%
2,NC(=O)Nc1ccc([As](=O)(O)O)cc1,inactive: 1.86%
3,O=C(O)COc1ccc([As](=O)(O)O)cc1[N+](=O)[O-],inactive: -8.96%
4,Nc1ccccc1[As](=O)(O)c1ccccc1,inactive: -2.25%
5,CS(=O)(=O)c1cc([N+](=O)[O-])c2no[n+]([O-])c2c1,inactive: -6.93%
6,CCOP1(=S)c2c(C)nn(CCC#N)c2N=C(c2ccccc2F)N1C (centres undefined),inactive: -3.85%
7,O=P(Nc1nccs1)(Oc1ccccc1)Oc1ccccc1,inactive: 9.61%
8,O=P(Nc1nccs1)(c1ccccc1)c1nc2ccccc2s1 (centres undefined),active: 51.1%
9,CC(C)NC(=O)NP(=O)(Oc1ccccc1)Oc1ccccc1,inactive: 4.19%
10,CCN(CC)C(=S)SC(NC=O)C(Cl)(Cl)Cl (centres undefined),inactive: 2.48%
11,O=C(OC1CN2CCC1CC2)c1cccc2[nH]cnc12 (centres undefined),inactive: -1.77%
12,O=[N+]([O-])c1cc([N+](=O)[O-])c(-c2ccn[nH]2)s1,inactive: -2.4%
13,COC(=O)C1(C)COP(=O)(N2CCCCCC2)OC1 (centres undefined),inactive: 5.03%
14,CC(C)c1ccc(OP(=O)(Nc2ccccn2)Oc2ccccc2F)cc1 (centres undefined),inactive: 4.97%
15,ClCCSc1nnc(-c2cccnc2)o1,inactive: -0.9%
16,Cc1ccc2nc3c(c(C)c2c1)CC(C(Cl)Cl)S3 (centres undefined),inactive: -2.47%
17,Cc1ccc(OP(=O)(Nc2ccc([N+](=O)[O-])cn2)Oc2ccc(C)cc2)cc1,inactive: 0.45%
18,C[As](=O)(O)c1cccc(C(=O)O)c1,inactive: 0.43%
19,O=[As](O)(c1ccc(O)cc1)c1ccccc1O,inactive: 0.12%
20,O=[N+]([O-])c1ccc(-c2cc([N+](=O)[O-])c(O)c([N+](=O)[O-])c2)cc1,inactive: -8.1%
21,COc1cc(C(=O)NCC2(N3CCOCC3)CCCCC2)ccc1OCC(C)C,inactive: -0.84%
22,COc1ccc(N/C(=N/P(=O)(N2CCOCC2)N2CCOCC2)N2CCOCC2)cc1,inactive: 1.05%
23,O=[N+]([O-])c1cc(Oc2ccc([N+](=O)[O-])cc2C(F)(F)F)cc([N+](=O)[O-])c1,inactive: -2.79%
24,COc1ccc2nc(NP(=O)(c3ccccc3)c3ccccc3)sc2c1,inactive: 0.44%
25,COc1cc(I)ccc1[As](=O)(O)O,inactive: 5.94%

row,SMILES,inhibition (reported as % activation of signal)
1,O=P1(N(CCCl)CCCl)OCCCN1CCCl (centres undefined),inactive: 0.47%
2,O=P1(N(CCCl)CCCl)Nc2ccccc2N1,inactive: -1.82%
3,O=C(OC1CN2CCC1CC2)C12CC3CC(CC(C3)C1)C2 (centres undefined),inactive: 3.58%
4,Cc1cc(=O)[nH]c(N[N+](=O)[O-])n1,inactive: 1.51%
5,Cc1c2c(nc3ccccc13)SC(C(Cl)Cl)C2 (centres undefined),inactive: 1.65%
6,CCC(C)N(CC(C)C)C(=S)SC(NC(C)=O)C(Cl)(Cl)Cl (centres undefined),inactive: -13.4%
7,CCOC(=O)c1ccc(NC(=O)C(C)(CCl)SC)cc1 (centres undefined),inactive: 0.33%
8,O=C(OC1CN2CCC1CC2)c1cccc([N+](=O)[O-])c1 (centres undefined),inactive: 2.73%
9,CSc1ccc(Nc2c([N+](=O)[O-])cc([N+](=O)[O-])cc2[N+](=O)[O-])cc1,inactive: 4.55%
10,O=C(COc1ccccc1)OC1CN2CCC1CC2 (centres undefined),inactive: -2.21%
11,O=C(Nc1ccncc1[N+](=O)[O-])c1ccc([N+](=O)[O-])cc1[N+](=O)[O-],inactive: -0.38%
12,O=C(O)C(=O)c1ccc(N(CCCl)CCCl)cc1,inactive: 1.66%
13,COP1(=S)c2c(C)nn(CCC#N)c2N=C(c2ccc(F)cc2)N1C (centres undefined),inactive: 0.42%
14,COC(=O)C1(C)COP(=O)(N2CCCC2)OC1 (centres undefined),inactive: -0.77%
15,O=[N+]([O-])c1ccc(Nc2ccc(Oc3ccc([N+](=O)[O-])cc3[N+](=O)[O-])cc2)c([N+](=O)[O-])c1,inactive: 14.8%
16,Cc1cc(SC(NC=O)C(Cl)(Cl)Cl)ncn1 (centres undefined),inactive: 3.11%
17,O=P(Nc1ccccn1)(c1cccc2ccccc12)c1cccc2ccccc12,inactive: -0.36%
18,CCOC(=O)Nc1cccc([As](=O)(O)O)c1,inactive: -11.2%
19,CCCCOc1ccc(C(=O)NCC2(N3CCCCC3)CCCCC2)cc1OC,inactive: -1.41%
20,Cc1cc(SC(NC(=O)c2ccccc2)C(Cl)(Cl)Cl)nc(C(C)C)n1 (centres undefined),inactive: -0.74%
21,COP(=O)(OC)N1CC1c1ccccc1 (centres undefined),inactive: 1.66%
22,CC1CCNP(=O)(N(CCCl)CCCl)O1 (centres undefined),inactive: 4.13%
23,O=C(O)C(O)c1ccc(N(CCCl)CCCl)cc1 (centres undefined),inactive: -7.39%
24,CCOC(=O)Nc1ccc([As](=O)(O)O)c(O)c1,inactive: 0.65%
